Source: US8637463B2, “Peptide inhibiting angiotensin converting enzyme” (Meiji Dairies Corporation, priority 2003, dated 2014)

Sequences of proteins named here, by UniProt entry; tags and fusion partners are left off. Residues count along the entry.
UniProt P12821, 30-1306, species assumed: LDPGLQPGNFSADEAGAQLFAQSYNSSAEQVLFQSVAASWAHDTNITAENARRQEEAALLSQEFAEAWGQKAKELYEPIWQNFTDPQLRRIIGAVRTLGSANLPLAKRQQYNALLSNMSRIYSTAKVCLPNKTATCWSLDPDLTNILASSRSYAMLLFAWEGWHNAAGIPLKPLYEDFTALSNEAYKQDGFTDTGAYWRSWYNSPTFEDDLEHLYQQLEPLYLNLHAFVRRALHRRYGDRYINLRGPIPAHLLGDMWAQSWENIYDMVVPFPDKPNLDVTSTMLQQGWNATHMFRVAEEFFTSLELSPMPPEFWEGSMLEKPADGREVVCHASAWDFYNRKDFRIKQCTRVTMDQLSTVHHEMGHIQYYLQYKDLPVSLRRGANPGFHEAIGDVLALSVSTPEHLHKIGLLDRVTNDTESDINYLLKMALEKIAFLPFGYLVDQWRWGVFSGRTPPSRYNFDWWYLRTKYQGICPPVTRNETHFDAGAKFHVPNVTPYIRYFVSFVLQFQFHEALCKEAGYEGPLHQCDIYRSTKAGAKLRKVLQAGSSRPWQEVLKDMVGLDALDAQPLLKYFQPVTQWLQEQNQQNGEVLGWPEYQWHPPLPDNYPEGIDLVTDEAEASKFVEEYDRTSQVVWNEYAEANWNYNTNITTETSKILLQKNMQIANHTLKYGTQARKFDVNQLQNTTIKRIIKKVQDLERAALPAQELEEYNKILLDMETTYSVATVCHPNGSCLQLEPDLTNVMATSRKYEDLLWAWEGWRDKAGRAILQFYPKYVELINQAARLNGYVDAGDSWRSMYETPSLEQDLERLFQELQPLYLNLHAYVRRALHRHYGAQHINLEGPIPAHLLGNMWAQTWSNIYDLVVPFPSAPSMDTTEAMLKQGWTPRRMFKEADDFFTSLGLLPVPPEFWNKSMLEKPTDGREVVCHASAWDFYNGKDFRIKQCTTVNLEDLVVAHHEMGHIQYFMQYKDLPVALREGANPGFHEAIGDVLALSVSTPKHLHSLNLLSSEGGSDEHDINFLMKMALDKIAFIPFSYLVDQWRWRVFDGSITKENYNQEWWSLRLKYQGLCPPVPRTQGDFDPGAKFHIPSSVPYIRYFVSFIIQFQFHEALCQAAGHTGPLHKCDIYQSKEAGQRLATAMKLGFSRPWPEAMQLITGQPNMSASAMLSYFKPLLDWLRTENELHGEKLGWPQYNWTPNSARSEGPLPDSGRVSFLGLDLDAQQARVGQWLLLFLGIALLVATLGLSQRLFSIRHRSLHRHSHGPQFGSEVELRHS

Molecular target: Angiotensin Converting Enzyme (Homo sapiens, UniProt P12821)
Assay: ACE inhibitory activity with Hippuryl-His-Leu substrate, absorbance at 228 nm
Type: biochemical
Conditions: synthetic peptide, 0.1 M borate buffer pH 8.3, 37° C., 60 minutes; Table 1
Experimental: Each of the peptides of SEQ ID NOs:1 to 7 was synthesized using an automatic peptide synthesizer. It was confirmed by reverse phase HPLC that the purity of each of the thus obtained peptides is 95%. Each of these synthetic peptides was dissolved in 0.1 M borate buffer (pH 8.3). Subsequently, 0.1 ml of an enzyme solution (Angiotensin Converting Enzyme: 2 units/ml) and 0.04 ml of each of the sample solutions were mixed therewith, followed by heating to 37° C. A 0.1 ml portion of a substrate solution (Hippuryl-His-Leu; N-Benzoyl-Gly-His-Leu) was added thereto, followed by thorough stirring. After allowing the mixture to react at 37° C. for 60 minutes, the reaction was stopped by adding 0.13 ml of 1 N hydrochloric acid. […] The residual matters were dissolved by adding 0.5 ml of distilled water, and the absorbance at a wavelength of 228 nm was measured.
The activity of inhibiting ACE (%) was calculated by the following mathematical expression 1. […]
In this connection, A in the expression is absorbance of the control when the enzyme is used, B is the absorbance of the control when the enzyme is not used, C is absorbance of the sample when the enzyme is used, and D is absorbance of the sample when the enzyme is not used. […]
Based on the thus obtained ACE inhibitory activities, IC50 of each peptide was calculated. […]

## CSCC[C@H](N)C(=O)N[C@@H](C)C(=O)N1CCC[C@H]1C(=O)O [Met-Ala-Pro]
  IC50: 800 nM
